Biological target: Nav1.7 (or SCN9A) channel; HEK cells stably transfected with hSCN9A (Homo sapiens, UniProt Q15858)
Experiment: Nav1.7 block, PatchXpress 7000 automated whole-cell voltage clamp, estimated IC50 (EIC50)
Details: read-out: SCN9A EIC50, PatchXpress platform, Examples 283-814

By UniProt entry, the sequences of proteins in these tests, tags left out.
UniProt Q15858, whole entry: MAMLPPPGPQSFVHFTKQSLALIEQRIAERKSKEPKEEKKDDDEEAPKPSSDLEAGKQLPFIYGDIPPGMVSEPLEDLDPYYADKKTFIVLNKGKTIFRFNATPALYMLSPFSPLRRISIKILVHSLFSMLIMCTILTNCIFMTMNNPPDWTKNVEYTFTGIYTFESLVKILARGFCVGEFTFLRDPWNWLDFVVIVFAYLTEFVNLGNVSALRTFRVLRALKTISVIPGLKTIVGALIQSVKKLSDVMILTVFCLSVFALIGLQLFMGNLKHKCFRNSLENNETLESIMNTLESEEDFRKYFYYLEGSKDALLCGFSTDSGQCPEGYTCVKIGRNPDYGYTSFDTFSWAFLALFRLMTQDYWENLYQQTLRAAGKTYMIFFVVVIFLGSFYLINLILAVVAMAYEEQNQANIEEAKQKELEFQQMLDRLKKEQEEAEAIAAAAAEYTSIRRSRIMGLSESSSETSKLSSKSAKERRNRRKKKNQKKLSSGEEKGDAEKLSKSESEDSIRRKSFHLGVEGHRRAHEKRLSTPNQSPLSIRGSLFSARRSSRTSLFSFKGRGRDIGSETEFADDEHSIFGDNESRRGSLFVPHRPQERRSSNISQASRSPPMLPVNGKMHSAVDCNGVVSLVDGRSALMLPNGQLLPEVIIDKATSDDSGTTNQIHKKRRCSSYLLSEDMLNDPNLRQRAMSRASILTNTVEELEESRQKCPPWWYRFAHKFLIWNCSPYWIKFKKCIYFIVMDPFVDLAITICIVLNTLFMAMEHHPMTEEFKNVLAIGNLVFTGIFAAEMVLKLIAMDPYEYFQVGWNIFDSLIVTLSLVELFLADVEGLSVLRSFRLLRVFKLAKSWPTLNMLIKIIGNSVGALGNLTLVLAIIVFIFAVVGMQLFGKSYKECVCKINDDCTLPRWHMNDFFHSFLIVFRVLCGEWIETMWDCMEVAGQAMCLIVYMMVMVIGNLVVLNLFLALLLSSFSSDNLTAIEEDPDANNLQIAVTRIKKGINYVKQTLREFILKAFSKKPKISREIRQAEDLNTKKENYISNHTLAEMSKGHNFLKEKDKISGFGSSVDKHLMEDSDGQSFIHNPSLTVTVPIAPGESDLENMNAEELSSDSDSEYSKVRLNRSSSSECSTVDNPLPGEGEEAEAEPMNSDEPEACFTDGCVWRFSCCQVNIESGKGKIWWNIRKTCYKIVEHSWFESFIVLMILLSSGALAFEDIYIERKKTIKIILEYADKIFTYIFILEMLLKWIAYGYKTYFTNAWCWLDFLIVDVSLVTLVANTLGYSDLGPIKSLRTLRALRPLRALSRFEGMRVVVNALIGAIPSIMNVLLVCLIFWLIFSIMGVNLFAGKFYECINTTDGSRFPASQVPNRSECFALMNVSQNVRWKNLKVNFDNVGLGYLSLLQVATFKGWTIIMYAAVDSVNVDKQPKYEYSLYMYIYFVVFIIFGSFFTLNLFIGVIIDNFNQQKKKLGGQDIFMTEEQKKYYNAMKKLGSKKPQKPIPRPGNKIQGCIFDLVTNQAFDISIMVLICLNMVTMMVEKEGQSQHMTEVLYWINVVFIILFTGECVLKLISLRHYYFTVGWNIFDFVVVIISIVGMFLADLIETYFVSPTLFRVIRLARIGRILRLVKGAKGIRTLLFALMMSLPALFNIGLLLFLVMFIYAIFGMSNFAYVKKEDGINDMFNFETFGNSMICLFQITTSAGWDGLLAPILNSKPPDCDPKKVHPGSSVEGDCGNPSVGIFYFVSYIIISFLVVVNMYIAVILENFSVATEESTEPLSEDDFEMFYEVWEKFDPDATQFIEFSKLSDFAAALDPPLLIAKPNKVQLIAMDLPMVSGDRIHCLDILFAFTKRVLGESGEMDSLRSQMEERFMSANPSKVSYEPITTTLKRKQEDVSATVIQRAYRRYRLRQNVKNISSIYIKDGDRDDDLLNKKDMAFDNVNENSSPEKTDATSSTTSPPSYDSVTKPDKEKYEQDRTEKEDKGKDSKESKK

For N#Cc1cc(S(=O)(=O)Nc2ncns2)ccc1Oc1ccc(C(F)(F)F)cc1-c1cn[nH]c1 [Example 438], which IC50 is on record?
The IC50 was 17 nM.

From patent US8541588B2 (dated 2013)
